Target: T1, Neutrophil elastase (Homo sapiens, UniProt P08246)
T1 sequence (P08246 whole entry): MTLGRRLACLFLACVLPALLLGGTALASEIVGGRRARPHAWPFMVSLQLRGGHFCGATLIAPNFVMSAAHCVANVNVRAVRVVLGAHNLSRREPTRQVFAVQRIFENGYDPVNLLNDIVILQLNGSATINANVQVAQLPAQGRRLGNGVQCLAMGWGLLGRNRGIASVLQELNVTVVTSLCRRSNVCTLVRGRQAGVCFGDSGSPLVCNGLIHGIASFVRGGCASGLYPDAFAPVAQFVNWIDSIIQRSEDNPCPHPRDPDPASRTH
Assay: Inhibition of neutrophil elastase in human plasma using MeOSuc-Ala-Ala-Pro-Val-AMC as substrate by fluorescence assay

EC50: 3 nM
SMILES: CN1C(=O)N(c2cccc(C(F)(F)F)c2)C2=C(C(=O)CC2)C1c1ccc(C#N)cc1 (stereo unspecified)
